Data reported in patent publication US9603854B2, “Indolizine compounds, a process for their preparation and pharmaceutical compositions containing them” (LES LABORATOIRES SERVIER, priority 2012, dated 2017).
Counter-ions that a name gives are not always drawn.

The chains behind the UniProt entries cited, without tags or fusion partners.
UniProt P10415, whole entry: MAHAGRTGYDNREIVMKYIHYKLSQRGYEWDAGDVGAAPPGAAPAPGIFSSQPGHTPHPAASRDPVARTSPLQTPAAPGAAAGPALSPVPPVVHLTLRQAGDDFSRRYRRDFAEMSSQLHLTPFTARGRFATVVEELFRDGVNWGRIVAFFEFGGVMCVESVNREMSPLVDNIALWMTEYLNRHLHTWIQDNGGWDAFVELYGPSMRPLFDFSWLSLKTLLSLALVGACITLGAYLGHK

Molecular target: Bcl-2 protein (Homo sapiens (Human), UniProt P10415)
Test: Inhibition of Bcl-2 by the fluorescence polarisation technique
Format: binding
Conditions: Bcl-2 inhibition, fluorescence polarisation test; read-out: IC50 (nM) Bcl-2 FP
Method: The fluorescence polarisation tests were carried out on microplates (384 wells). […] After incubation for 2 hours, the fluorescence polarisation is measured.

Cn1ccc2ccc(N(C(=O)c3cc(-c4cc(Cl)ccc4C(=O)N4Cc5ccccc5C[C@H]4CN4CCOCC4)n4c3CCCCC4)c3ccc(O)cc3)cc21 [Example 83, 3-{5-Chloro-2-[((3S)-3-(4-morpholinylmethyl)-3,4-dihydro-2(1H)-isoquinolinyl)carhonyl]phenyl}-N-(4-hydroxyphenyl)-N-(1-methyl-1H-indol-6-yl)-6,7,8,9-tetrahydro-5H-pyrrolo[1,2-a]azepine-1-carboxamide hydrochloride]
IC50: 18 nM
